Test system: Aspergillus fumigatus

## ^111In-DTPA-Benzyl-NH-Succinic Acid-CGGRLGPFC [imaging agent of FIG. 1]
24 hours after injection, mice infected with Aspergillus fumigatus, FIG. 3A
  uptake of the imaging agent in the lung, infected versus uninfected control mice: higher uptake
24 hours post injection, pulmonary Aspergillus infection, FIG. 3B
  target-to-background ratio: imaging agent in lung tissue compared to blood or muscle, infected versus control mice: much higher amounts

Reference: patent publication US20100034739A1, “Fungus-Specific Imaging Agents” (priority 2006, published 2010)
